The values that follow come from PubChem BioAssay AID624126 (The Scripps Research Institute Molecular Screening Center, 2012).

Chains of the proteins cited; added tags and fusions are not shown.
UniProt P08173, whole entry, looked up: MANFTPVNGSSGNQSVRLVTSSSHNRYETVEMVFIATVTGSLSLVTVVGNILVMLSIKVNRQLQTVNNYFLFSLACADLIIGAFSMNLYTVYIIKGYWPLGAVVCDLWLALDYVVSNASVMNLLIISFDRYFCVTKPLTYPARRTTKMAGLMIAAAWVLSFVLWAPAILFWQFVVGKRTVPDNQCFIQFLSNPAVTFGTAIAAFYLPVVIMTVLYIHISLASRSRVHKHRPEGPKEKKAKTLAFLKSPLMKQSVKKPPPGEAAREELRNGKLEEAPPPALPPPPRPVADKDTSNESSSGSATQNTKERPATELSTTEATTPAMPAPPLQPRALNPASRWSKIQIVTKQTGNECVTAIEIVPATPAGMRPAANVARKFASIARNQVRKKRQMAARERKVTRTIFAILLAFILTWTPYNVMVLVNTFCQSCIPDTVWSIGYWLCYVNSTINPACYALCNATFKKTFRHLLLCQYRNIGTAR

The list shows a part of the results, in another mix than the full data. The source made the active and inactive calls.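 Rule for the calls: active = activation above its plate's cutoff, the mean activation of sample wells plus 3 SD; inactive = the rest.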

In this test the target is Muscarinic acetylcholine receptor M4 (Homo sapiens) (UniProt P08173). In words: CHRM4 PAMs potentiating acetylcholine calcium signal – CHO-K1 cells, Fluo-8 calcium fluorescence, primary screen (AID 624126). The settings on record: CHO-K1 hM4/Gqi5, Fluo-8 calcium fluorescence, ACh EC20; at 3 µM; active compounds read high; 0% = ACh EC20, 100% = maximal ACh.
Turning to `CC(=O)N1C2C3N(C(C)=O)C1C1N(C(C)=O)C(C(N1C(C)=O)N3C(C)=O)N2C(C)=O`, the activation is inactive: -1%.
Take `CCc1nc2c(n1)c1c(non1O)c1c2no[n+]1[O-]`: the activation was inactive: -3.09%.
Regarding `O=[N+]([O-])c1cc([N+](=O)[O-])c(CCNc2ccccc2)c([N+](=O)[O-])c1`, the activation was inactive: 0.76%.
As for `Cc1ccc(NP(=O)(Oc2ccccc2)Oc2ccccc2)nc1`, the activation is inactive: 0.75%.
Under `C[N+]1=C2C=CC=CC=C2SC12C([N+](=O)[O-])=CC([N+](=O)[O-])=C[C-]2[N+](=O)[O-]` (stereo not given) stands inactive: -1.99%; under `Nc1ccc([As](=O)(O)c2ccc(N)cc2)cc1`, inactive: 1.02%; under `CCN(/C(=N/P(=O)(N1CCOCC1)N1CCOCC1)N1CCOCC1)c1ccc(OC)cc1`, inactive: 13.2%.
As to `CN(C)C(=O)OCCc1n(C)cc[n+]1C`, the activation is inactive: -2.14%.
For the compound `CC(C)c1nc(Nc2ccccc2)n(P(=O)(N(C)C)N(C)C)n1`, the activation is inactive: 6.51%.
On to `CC(C)=N/N=C(\N)N[N+](=O)[O-]`, for which the activation is inactive: 4.08%.
Under `CC1CCN(C(=O)Oc2c(Cl)cc(Cl)c3cccnc23)CC1` stands inactive: 2.49%.
As for `c1cc(-c2nn[nH]n2)ccc1-c1nn[nH]n1`, the figure is inactive: 4.72%.
For the compound `O=P1(N(CCCl)CCCl)OCCCS1` (stereo not given), the activation was inactive: 7.66%.
Regarding `O=C(Nc1cc([As](=O)(O)O)ccc1O)c1ccccc1`, the activation was inactive: 4.46%.
Under `CC(C)(C)C(=O)NC(Sc1ccncn1)C(Cl)(Cl)Cl` (stereo not given) stands inactive: 33.9%.
Consider `O=[N+]([O-])c1ncn(CCn2ncnc2[N+](=O)[O-])n1`, for which the activation was inactive: 3.11%.
For the compound `COC(=O)C1(C)COP(=O)(Nc2ccccc2)OC1` (stereo not given), the activation is inactive: 2.9%.
Under `O=[N+]([O-])c1cccc(NC2=NCC(CBr)S2)c1` (stereo not given) stands inactive: -0.9%; under `O=C(O)CNc1ccc([As](=O)(O)O)cc1`, inactive: -0.15%; under `C/C=C1/C[C@@H](C)[C@](O)(CO)C(=O)OCC2=CCN3CC[C@@H](OC1=O)[C@@H]23`, inactive: 0.53%.
